Test [1] has as its system Human rhinovirus sp. Nature of the test: Irreversible inhibition of human rhinovirus 3C protease assessed as Kobs/[I] by FRET assay.
Test [2] deals with rhinovirus B14. Nature of the test: Irreversible inhibition of human rhinovirus 14 3C protease assessed as Kobs/[I] by FRET assay.

Molecules are shown by their SMILES.

With `CCOC(=O)/C=C/[C@H](CCC(N)=O)NC(=O)[C@H](Cc1ccccc1)NC(=O)[C@H](CC(C)C)NC(=O)OCc1ccccc1`, the K in test [1] turned out to be 25000 M⁻¹ s⁻¹.
Regarding `CCOC(=O)/C=C/[C@H](C[C@@H]1CCNC1=O)NC(=O)[C@@H](CC(=O)[C@@H](NC(=O)c1cc(C)on1)C(C)C)Cc1ccc(F)cc1`, the K in test [2] stood at 147000 M⁻¹ s⁻¹.
